Measurements taken from ChEMBL document CHEMBL2057181, “Crystal structure of phosphoethanolamine methyltransferase from Plasmodium falciparum in complex with amodiaquine” (Bioorg Med Chem Lett, 2012).

Target: T1, Phosphoethanolamine N-methyltransferase (Plasmodium falciparum, UniProt Q8IDQ9)
T1 sequence (Q8IDQ9 whole entry): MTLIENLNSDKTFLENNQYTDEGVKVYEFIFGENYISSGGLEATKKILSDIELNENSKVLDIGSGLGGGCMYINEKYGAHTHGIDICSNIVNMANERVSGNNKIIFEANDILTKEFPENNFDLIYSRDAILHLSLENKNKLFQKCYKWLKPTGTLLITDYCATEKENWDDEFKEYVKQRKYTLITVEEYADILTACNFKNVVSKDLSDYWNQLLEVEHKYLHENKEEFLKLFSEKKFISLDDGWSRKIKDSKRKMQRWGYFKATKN
Assay: Inhibition of Plasmodium falciparum phosphoethanolamine methyltransferase using phospethanolamine as substrate by radiochemical assay in presence of S-adenosylmethionine

## CCN(CC)Cc1cc(Nc2ccnc3cc(Cl)ccc23)ccc1O
  IC50: 1350 µM
